# Molecular target: human FcγR1 (hFcγR1) (human) (UniProt P12314)
# Sequences of proteins named here, by UniProt entry; tags and fusion partners are left off. Residues count along the entry.
# UniProt P12314, 16-288 limits assumed: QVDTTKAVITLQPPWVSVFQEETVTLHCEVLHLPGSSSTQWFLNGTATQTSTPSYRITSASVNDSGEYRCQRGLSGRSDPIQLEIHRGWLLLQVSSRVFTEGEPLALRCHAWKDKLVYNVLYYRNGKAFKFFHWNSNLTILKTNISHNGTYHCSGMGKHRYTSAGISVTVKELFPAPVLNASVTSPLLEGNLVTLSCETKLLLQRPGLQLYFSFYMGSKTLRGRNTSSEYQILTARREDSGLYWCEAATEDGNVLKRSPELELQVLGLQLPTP
# Assay: BLI, Hu Fc1
row,Substance,normalized binding response
1,Ab5 (anti-CD45 antibody) D265C.N297A.H435A variant,1 % of WT
2,Ab5 (anti-CD45 antibody) LALA variant,21 % of WT
3,Ab5 LALA.P329G (antibody),1 % of WT
4,Ab5 LALA.P331G (antibody),4 % of WT
5,Ab5 N297A.I253A.H310A.H435A (antibody),25 % of WT
